Article PMC3258025 (Molecular Cancer Therapeutics, 2010)

Tested on: HEK-EV cells
Conditions: cimetidine 1.5 mmol/L coincubation; P > 0.05

CN/C(=N/CCSCc1nc[nH]c1C)NC#N [cimetidine]
Reduction in picoplatin-DNA adduct concentration by cimetidine, HEK-EV cells: 1.37 fold
